{"source": "ChEMBL document CHEMBL4422617", "about": "“Recent advances in the discovery of small molecules targeting glioblastoma” (Eur J Med Chem, 2019)", "test": "Antiproliferative activity against human U373 cells", "format": "functional, cell-based, U-373MG ATCC", "details": "U373 MG"}
{"molecule": "NS(=O)(=O)c1cccc2c1C(=O)c1cccc(O)c1C2=O", "values": [{"measurement": "IC50", "result": 860, "unit": "nM"}]}
